System: CYP isoforms (CYP1A2, CYP2A6, CYP2B6, CYP2C8, CYP2C9, CYP2C19, CYP2D6, CYP2E1, and CYP3A4)
Test: Direct CYP inhibition assay in pooled HLMs, nine CYP isoforms (summary statement)
Conditions: up to 50 μM

limonene [LMN]
Inhibition of activities of CYP isoforms (words): not significantly inhibited
